# Active and inactive are the calls of the source. The rule behind the calls is not given here.
# Test system: Ventricular myocyte
# Test: Cardiomyocyte contractility in Sprague-Dawley rat ventricular myocytes assessed as shortening of cell length after electrical stimulation
# Type: functional, cell-based
structure (smiles),measurement,value
C[C@@H](Cc1ccc(O)cc1)NC[C@@H](O)c1cc(O)cc(O)c1,Activity,inactive

# Source: ChEMBL document CHEMBL1143696, “Comparative molecular field analysis of the binding of the stereoisomers of fenoterol and fenoterol derivatives to the beta2 adrenergic receptor” (J Med Chem, 2007)
